Experimental data published in ChEMBL document CHEMBL6078669, “Stereoisomers of cannabidiols and their pharmacological activities - A potentially novel direction for cannabinoids” (Bioorg Med Chem, 2025).

Amino acid sequences for entries named in this document (tags omitted).
UniProt P20272, whole entry: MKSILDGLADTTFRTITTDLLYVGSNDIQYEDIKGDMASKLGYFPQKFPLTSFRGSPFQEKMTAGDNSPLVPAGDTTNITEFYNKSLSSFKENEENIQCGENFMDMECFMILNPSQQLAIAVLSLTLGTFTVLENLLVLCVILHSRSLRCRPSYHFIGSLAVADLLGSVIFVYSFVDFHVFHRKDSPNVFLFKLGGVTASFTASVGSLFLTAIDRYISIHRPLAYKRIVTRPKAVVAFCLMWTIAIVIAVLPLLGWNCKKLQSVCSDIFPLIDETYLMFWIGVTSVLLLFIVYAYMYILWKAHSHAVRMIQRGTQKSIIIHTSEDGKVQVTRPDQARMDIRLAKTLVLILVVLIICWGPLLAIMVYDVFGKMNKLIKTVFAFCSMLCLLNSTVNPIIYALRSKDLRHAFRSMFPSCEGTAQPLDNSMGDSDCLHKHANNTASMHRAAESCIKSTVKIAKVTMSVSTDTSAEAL
UniProt P34972, whole entry: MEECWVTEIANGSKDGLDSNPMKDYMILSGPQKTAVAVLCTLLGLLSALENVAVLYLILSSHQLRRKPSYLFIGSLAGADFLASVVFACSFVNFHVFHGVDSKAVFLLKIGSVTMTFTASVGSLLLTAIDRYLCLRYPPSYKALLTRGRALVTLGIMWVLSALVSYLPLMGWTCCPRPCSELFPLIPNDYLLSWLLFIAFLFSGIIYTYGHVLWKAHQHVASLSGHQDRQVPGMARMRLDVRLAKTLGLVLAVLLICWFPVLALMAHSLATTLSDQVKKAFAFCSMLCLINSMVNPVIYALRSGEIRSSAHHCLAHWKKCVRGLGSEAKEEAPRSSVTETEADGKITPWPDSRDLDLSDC

Key:
Cannabinoid receptor 1 = Cannabinoid receptor 1 (Rattus norvegicus, UniProt P20272); experiment: Displacement of [3H]HU-243 from Sabra rat brain synaptosome CB1 receptor assessed as inhibition constant incubated for 90 mins; format: subcellular
Cannabinoid receptor 2 = Cannabinoid receptor 2 (Homo sapiens, UniProt P34972); experiment: Displacement of [3H]HU-243 from CB2 receptor (unknown origin) extracted from green monkey COS-7 cell membrane assessed as inhibition constant incubated for 90 mins; format: cell membranes

## C=C(C)[C@@H]1CCC(C)=C[C@H]1c1c(O)cc(CCCCC)cc1O [CANNABIDIOL]
Cannabinoid receptor 1
  Ki: > 1 µM
Cannabinoid receptor 2
  Ki: > 1 µM
